The conditions of the series: for AUCinf, G mean (GCV%): warfarin 5 mg oral single dose alone (cocktail with midazolam); for AUCinf, adjusted G mean / AUClast, adjusted G mean: linear mixed model.
[1] abbreviates: warfarin 5 mg oral + asciminib 40 mg b.i.d. steady-state, day 11, plasma.
Where [2] appears, read: warfarin 5 mg oral alone, day 1, plasma.
[3] abbreviates: warfarin + asciminib 40 mg b.i.d. steady-state.

Read-outs that look alike come from different tables or passages of the source.

For the molecule `CC(=O)C[C@@H](c1ccccc1)c1c(O)c2ccccc2oc1=O` [S‐Warfarin, S‐warfarin], the “AUClast, G mean (GCV%)” value is, setting by setting: under setting [1], 9010 (23.4) ng × h/ml; under setting [2], 6480 (22.8) ng × h/ml. Besides, the “AUCinf, G mean (GCV%)” value (day 1, plasma) was 7350 (23.9) ng × h/ml. Further, the “AUCinf, adjusted G mean” value by setting is: under setting [3], 10,300 ng × h/ml; (warfarin alone) 7350 ng·h/mL. Moreover, the “AUClast, adjusted G mean” value runs as follows: under setting [3], 9010 ng·h/mL; (warfarin alone) 6480 ng·h/mL.

Turning to `CC(=O)C[C@H](c1ccccc1)c1c(O)c2ccccc2oc1=O` [R‐Warfarin, R‐warfarin], the “AUClast, G mean (GCV%)” value is listed as 12000 (25.3) ng × h/ml under setting [1] and 9700 (24.7) ng × h/ml under setting [2]. Besides, the “AUCinf, G mean (GCV%)” value (day 1, plasma) is 10500 (22.0) ng × h/ml. Moreover, the “AUCinf, adjusted G mean” value under setting [3] is listed as 13,500 ng × h/ml and the “AUCinf, adjusted G mean” value (warfarin alone) is 10,800 ng × h/ml. Besides, the “AUClast, adjusted G mean” value reads like this: under setting [3], 12,000 ng ×h/ml; (warfarin alone) 9700 ng·h/mL.

The values above are taken from publication PMC9199882 (Clinical and Translational Science, 2022).
